Experimental data published in paper PMC12363935, “Unc-51 Like Kinase 3 (ULK3) is essential for autophagy and cell survival in multiple myeloma” (Research Square, 2025).

Tested on: primary CD138+ MM cells
Test: EMMA ex vivo platform, live cell imaging, 96 hours, collagen matrix with bone marrow stroma and patient plasma
Format: cell-based
Set-up: scale not given here
Text: For clinical robustness, we tested the activity of MA9 in MM patient samples using our ex vivo mathematical myeloma advisor (EMMA) platform (Supplementary Table 1). […]
For these assays, we used a novel EMMA platform developed at Moffitt. Further details are included in the supplemental Materials. […]
400 Ex vivo drug sensitivity characterization
401 An ex vivo assay was used to quantify the chemosensitivity of primary MM cells. Fresh BM
402 aspirate cells were enriched for CD138+ expression using Miltenyi (Bergisch Gladbach, Germany)
MM cells (CD138+) were seeded in Corning
404 Cell BIND 384 well plates (Corning, NY) with collagen I and previously established human-
407 inactivated), penicillin/streptomycin, and patient-derived plasma (10%, freshly obtained from
409 added using a robotic plate handler so that every drug/combination was tested at 5 (fixed
410 concentration ratio, for combinations) concentrations (1:3 serial dilution) in two replicates.
411 Negative controls (supplemented growth media with and without the vehicle control dimethyl
412 sulfoxide [DMSO]) were included, as well as positive controls for each drug (cell line MM1.S at
413 highest drug concentration). Plates were placed in a motorized stage microscope (EVOS Auto FL,
414 Life Technologies, Carlsbad, CA) equipped with an incubator and maintained at 5% CO2 and 37
415 °C. […]
Digital image analysis computes the percent
418 viability of MM cells for each time point and experimental condition (drug and concentration)

CC(C)C[C@H](NC(=O)[C@H](Cc1ccccc1)NC(=O)c1cnccn1)B(O)O [BTZ, bortezomib]
AUC (Pt653, LRMM): 54.219 | AUC (Pt718, SMOL): 53.735 | AUC (Pt865, LRMM): 54.103 | AUC (Pt885, NDMM): 53.664 | AUC (Pt945, LRMM): 55.241 | AUC (Pt948, LRMM): 58.089 | AUC (Pt951, ERMM): 57.542
